Measured values taken from patent US10800749B2, “Centrally active and orally bioavailable antidotes for organophosphate exposure and methods for making and using them” (dated 2020).

By UniProt entry, the sequences of proteins in these tests, tags left out. Where a name states a change or a piece, a line headed by the entry shows the natural chain unless it says otherwise.
UniProt P22303: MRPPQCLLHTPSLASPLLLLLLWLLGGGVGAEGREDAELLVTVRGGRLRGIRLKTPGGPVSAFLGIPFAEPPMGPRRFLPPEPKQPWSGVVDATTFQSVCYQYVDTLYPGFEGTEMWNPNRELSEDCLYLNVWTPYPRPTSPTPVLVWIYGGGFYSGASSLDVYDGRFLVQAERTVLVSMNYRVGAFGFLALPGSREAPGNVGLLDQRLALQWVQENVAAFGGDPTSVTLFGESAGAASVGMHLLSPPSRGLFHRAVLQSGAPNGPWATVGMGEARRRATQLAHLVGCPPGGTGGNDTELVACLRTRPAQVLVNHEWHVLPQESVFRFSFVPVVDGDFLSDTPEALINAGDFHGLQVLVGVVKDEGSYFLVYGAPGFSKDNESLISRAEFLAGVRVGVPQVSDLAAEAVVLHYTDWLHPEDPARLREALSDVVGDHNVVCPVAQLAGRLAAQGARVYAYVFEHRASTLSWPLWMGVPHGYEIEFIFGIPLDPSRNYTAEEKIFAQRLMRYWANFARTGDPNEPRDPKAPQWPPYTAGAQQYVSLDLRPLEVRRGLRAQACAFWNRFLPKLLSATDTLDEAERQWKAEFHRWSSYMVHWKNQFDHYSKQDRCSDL

Experiments:
male CD-1 mice = details: i.m., 24-h mortality
[1] = Oxime pharmacokinetics in mice (plasma and brain)
[2] = Ionization state analysis combining UV, 1H NMR and oximolysis (Table 3)
[3] = Oxime pKa determination by 1H NMR in D2O buffers
[4] = molecular target: cyclosarin-inhibited hAChE (Homo sapiens, UniProt P22303); assay: In vitro oxime reactivation of cyclosarin-hAChE conjugate (initial screen); details: 0.67 mM oxime, 37° C., 0.10 M phosphate buffer pH 7.4; approximate, uncertainty about 50%
paraoxon-inhibited hAChE = paraoxon-inhibited hAChE (Homo sapiens, UniProt P22303); assay: In vitro oxime reactivation of paraoxon-hAChE conjugate (initial screen); details: 0.67 mM oxime, 37° C., 0.10 M phosphate buffer pH 7.4; approximate, uncertainty about 50%
[5] = pH dependence of ATCh oximolysis; details: 1.0 mM ATCh, 0.1 mM oxime, 22° C., 20 mM phosphate-pyrophosphate buffers
[6] = pH dependence of VX Flu-MP oximolysis; details: 0.1 mM VX Flu-MP, 0.5 mM oxime, 22° C., 20 mM phosphate-pyrophosphate buffers
sarin-inhibited hAChE = sarin-inhibited hAChE (Homo sapiens, UniProt P22303); assay: In vitro oxime reactivation of sarin-hAChE conjugate (initial screen); details: 0.67 mM oxime, 37° C., 0.10 M phosphate buffer pH 7.4; approximate, uncertainty about 50%
VX-inhibited hAChE = VX-inhibited hAChE (Homo sapiens, UniProt P22303); assay: In vitro oxime reactivation of VX-hAChE conjugate (initial screen); details: 0.67 mM oxime, 37° C., 0.10 M phosphate buffer pH 7.4; approximate, uncertainty about 50%
[7] = single i.m. dose, 80 mg/kg RS194B or 30 mg/kg RS41A

Compound	LD50, acute toxicity (male CD-1 mice)	Oral absorption (bioavailability F) ([1]; estimated from PK parameters upon intravenous and oral administration, not very accurate)	Signs of toxicity on repetitive dosing ([1]; loading dose 220 mg/kg, maintenance oral doses 110 mg/kg every 2 hr)	Concentration found in CNS ([1]; mice, i.m.)	Maximal brain concentration [1, 7]	Maximal brain concentration, molar equivalent [1, 7]	Maximal concentration in plasma [1, 7]	Maximal concentration in plasma, molar equivalent [1, 7]	Time for maximal brain concentration to reduce in half [1, 7]	Time for maximal plasma concentration to decay by half [1, 7]	fraction in protonated, cationic form ([2]; physiological pH 7.4)	pKa of oxime group from 1H NMR, equivalent in H2O ([3]; D2O value minus 0.5)	pKa of oxime group from 1H NMR chemical shift ([3]; in D2O, 2.0 mM oxime)	zwitterionic species, share of all forms ([2]; pH 8.4)	kobs, first order reactivation rate constant [4]	kobs, first order reactivation rate constant (paraoxon-inhibited hAChE)	pKa from pH dependence of ATCh oximolysis [5]	pKa from pH dependence of VX Flu-MP oximolysis [6]	kobs, first order reactivation rate constant (sarin-inhibited hAChE)	kobs, first order reactivation rate constant (VX-inhibited hAChE)
N-(2-(4-Azatricyclo[4.3.1.13′8]undecan-4-yl)ethyl)-2-(hydroxyimino)acetamide	238 mg/kg	–	–	–	–	–	–	–	–	–	–	–	–	–	–	–	–	–	–	–
O=C(C=NO)NCCN1CCCCCC1	–	≥ 60%	No signs of toxicity	up to 37 μιη	7.9 µg/mL	approximately 37 μM	10 µg/mL	54 μιη	60 min	12 min	more than 90%	–	–	–	–	–	–	–	–	–
2-pyridinealdoxime methiodide	106 mg/kg	–	–	–	–	–	–	–	–	–	–	8.1	8.6	more than 50%	0.025 min 1	0.087 min	8	8.1	0.16 min 1	0.15 min 1
